From article PMC11558128 (Advanced Science, 2024)

Target: T1, rKv4.2 D281K (Rattus norvegicus, UniProt Q63881, D281K)
T1 construct: expressed in transfected cells; host or cells: HEK293T
T1 sequence (Q63881 1-630 D281K): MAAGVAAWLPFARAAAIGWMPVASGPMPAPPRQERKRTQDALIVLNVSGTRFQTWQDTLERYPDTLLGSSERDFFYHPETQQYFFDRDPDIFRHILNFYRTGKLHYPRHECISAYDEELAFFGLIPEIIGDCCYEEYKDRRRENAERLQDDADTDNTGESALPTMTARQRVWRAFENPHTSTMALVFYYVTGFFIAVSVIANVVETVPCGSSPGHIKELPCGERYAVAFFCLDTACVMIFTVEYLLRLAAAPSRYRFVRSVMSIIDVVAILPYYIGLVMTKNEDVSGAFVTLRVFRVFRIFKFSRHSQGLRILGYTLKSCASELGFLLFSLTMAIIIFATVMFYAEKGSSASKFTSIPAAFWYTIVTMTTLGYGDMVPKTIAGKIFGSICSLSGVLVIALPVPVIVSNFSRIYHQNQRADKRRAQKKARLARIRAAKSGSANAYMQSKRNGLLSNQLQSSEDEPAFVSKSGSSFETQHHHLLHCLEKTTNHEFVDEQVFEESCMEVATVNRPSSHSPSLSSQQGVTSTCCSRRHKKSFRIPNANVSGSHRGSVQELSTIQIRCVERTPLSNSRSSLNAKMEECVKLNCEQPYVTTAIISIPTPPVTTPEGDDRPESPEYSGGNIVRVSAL
Test: cell-based
Conditions: SEM

Compound: CC[C@H](C)[C@H](NC(=O)[C@H](CCCCN)NC(=O)[C@H](Cc1ccc(O)cc1)NC(=O)[C@H](CCCCN)NC(=O)[C@@H]1CSSC[C@@H]2NC(=O)[C@H](CCC(=O)O)NC(=O)[C@H](CC(=O)O)NC(=O)[C@H](CCCCN)NC(=O)CNC(=O)[C@@H]3CCCN3C(=O)[C@H]([C@@H](C)O)NC(=O)[C@@H]3CSSC[C@H](NC(=O)[C@H](C(C)C)NC(=O)[C@H](Cc4c[nH]cn4)NC(=O)[C@H](CC(N)=O)NC(=O)[C@@H]4CCCN4C(=O)[C@H](CSSC[C@H](NC(=O)[C@H](C)N)C(=O)N[C@@H](CCCCN)C(=O)NCC(=O)N[C@@H]([C@@H](C)CC)C(=O)N[C@@H](Cc4ccccc4)C(=O)N[C@@H](C(C)C)C(=O)N[C@@H]([C@@H](C)O)C(=O)N3)NC2=O)C(=O)N[C@@H](CO)C(=O)N[C@@H](CO)C(=O)N[C@@H](CCCCN)C(=O)N[C@@H](Cc2c[nH]cn2)C(=O)N[C@@H](CCCCN)C(=O)N[C@@H](Cc2c[nH]c3ccccc23)C(=O)N1)C(N)=O [Cl6b]
- IC50: 3.27 ± 0.361 µM
